The values below are quoted from earlier work in patent US20230372302A1 (priority 2019, published 2023).

The conditions of data set [1]: human, in vivo; cited from earlier work.
The conditions of data set [2]: pH 7.4; cited from earlier work.

Molecules are shown by their SMILES. Counter-ions that a name gives are not always drawn.

As for `COc1cc2nc(N(C)CCCNC(=O)C3CCCO3)nc(N)c2cc1OC.Cl` (racemic) [ALFUZOSIN, (R,S)—N-[3-[(4-amino-6,7-dimethoxy-2-quinazolinyl)methylamino]propyl] tetrahydro-2-furancarboxamide hydrochloride], in data set [1], the dizziness was 6%, the hypotension is on record as 0.4% and the syncope is reported as 0.2%.

In the case of `COc1cc2nc(N3CCN(C(=O)C4CCCO4)CC3)nc(N)c2cc1OC` (racemic) [TERAZOSIN, (RS)-Piperazine,1-(4-amino-6,7-dimethoxy-2-quinazolinyl)-4-[(tetra-hydro-2-furanyl)carbonyl]-, monohydrochloride, dihydrate], in data set [1], the postural hypotension is given as 4% and the syncope is listed as 0.6%.

Turning to `CCOC(=O)c1ncn2c1CN(C)C(=O)c1cc(F)ccc1-2` [Flumazenil, ethyl 8-fluoro-5,6-dihydro-5-methyl-6-oxo-4H-imidazo[1,5-a](1,4) benzodiazepine-3-carboxylate], the “octanol: buffer partition coefficient” value in data set [2] was 14 to 1.

For the molecule `COc1cc2nc(N3CCN(C(=O)c4ccco4)CC3)nc(N)c2cc1OC.Cl` [prazosin, 1-(4-amino-6,7-dimethoxy-2-quinazolinyl)-4-(2-furoyl) piperazine], in data set [1], the “syncope and symptoms of hypotension, subjects receiving” value is given as 6-12%.

Turning to `CCOc1ccccc1OCCN[C@H](C)Cc1ccc(OC)c(S(N)(=O)=O)c1` [tamsulosin, (−)-(R)-5-[2-[[2-(o-Ethoxyphenoxy)ethyl]amino]propyl]-2-methoxybenzenesulfon-amide, monohydrochloride], the “incidence of hypotension, syncope, vertigo” value in data set [1] is reported as 0.2-0.6%.
